# Experiment: Storage stability of sHDL formulations
# Assay type: physicochemical
# Conditions: DMPC sHDL stored at 4° C.
sequence,measurement,value
PVLDLFRELLNELLEALKQKLK [22A],stability of sHDL suspension,stable for one month

# From US12257352B2, “Compositions and methods for delivery of biomacromolecule agents” (The Regents of the University of Michigan, priority 2016, dated 2025)
